From patent US4339379A, “N-Acrylcarnosine aluminum salts” (Nippon Chemiphar Co., Ltd., priority 1979, dated 1982)
Read-outs that look alike come from different tables or passages of the source.

Test system: rats
Conditions: P.O.

Row | Substance | LD50 (Female rats) | LD50 (Male rats)
1 | N-acetyl-L-carnosine aluminum salt [B] | > 10,000 mg/kg | > 10,000 mg/kg
2 | N-acetyl-DL-carnosine aluminum salt | > 10,000 mg/kg | > 10,000 mg/kg
